Measured values: PubChem BioAssay (NCI)
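1) Cells in 96-well plates. 2) Compound, 48 h, 5 concentrations. 3) Linear interpolation between surrounding doses. 4) Unreached endpoint = highest concentration. GI50 is the concentration that inhibits growth by half. Definition used: TGI = concentration required for complete inhibition of growth.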

What was measured:
Test in all cases: DTP human tumour cell line panel, 48 h; in the data active = GI50 below about 0.43 µM; inactive = the rest
[1] = system: PC-3 prostate
[2] = system: A549 NSCLC
[3] = system: SF-295 CNS
[4] = system: CCRF-CEM leukemia
[5] = system: SW-620 colon
[6] = system: KM12 colon
[7] = system: SNB-75 CNS
[8] = system: CAKI-1 renal
[9] = system: HT29 colon
[10] = system: LOX IMVI melanoma
[11] = system: NCI-H522 lung
[12] = system: NCI-H226 lung
[13] = system: HCT-116 colon
[14] = system: 786-0 renal
[15] = system: HS 578T breast
[16] = system: UACC-62 melanoma
[17] = system: U251 CNS
[18] = system: MALME-3M melanoma
[19] = system: IGROV1 ovarian
[20] = system: OVCAR-8 ovarian
[21] = system: SK-MEL-5 melanoma
[22] = system: NCI-H322M lung
[23] = system: ACHN renal
[24] = system: SK-MEL-28 melanoma
[25] = system: MOLT-4 leukemia
[26] = system: NCI/ADR-RES ovarian
[27] = system: SN12C renal
[28] = system: K-562 leukemia
[29] = system: OVCAR-5 ovarian
[30] = system: UO-31 renal
[31] = system: HCT-15 colon
[32] = system: SR leukemia
[33] = system: MCF7 breast
[34] = system: HL-60(TB) leukemia
[35] = system: OVCAR-4 ovarian
[36] = system: MDA-MB-435
[37] = system: HOP-92 NSCLC
[38] = system: RXF 393 renal
[39] = system: MDA-N
[40] = system: EKVX NSCLC
[41] = system: HOP-62 NSCLC
[42] = system: OVCAR-3 ovarian
[43] = system: MDA-MB-231 breast
[44] = system: TK-10 renal
[45] = system: M14 melanoma
[46] = system: SF-539 CNS
[47] = system: NCI-H23 lung
[48] = system: HCC-2998 colon
[49] = system: COLO 205 colon
[50] = system: DU-145 prostate
[51] = system: SK-MEL-2 melanoma
[52] = system: SNB-19 CNS
[53] = system: SK-OV-3 ovarian
[54] = system: BT-549 breast
[55] = system: UACC-257 melanoma
[56] = system: SF-268 CNS
[57] = system: T-47D breast
[58] = system: RPMI-8226 leukemia
[59] = system: NCI-H460 lung
[60] = system: A498 renal

Fc1ccc(NC2=NCC(CI)S2)c(F)c1 (stereo not given)
42.3 µM: TGI [34]
> 100 µM: TGI [1] | TGI [2] | TGI [3] | TGI [5] | TGI [6] | TGI [7] | TGI [8] | TGI [9] | TGI [10] | TGI [11] | TGI [12] | TGI [13] | TGI [14] | TGI [15] | TGI [16] | TGI [17] | TGI [18] | TGI [19] | TGI [20] | TGI [21] | TGI [22] | TGI [23] | TGI [24] | TGI [26] | TGI [27] | TGI [28] | TGI [29] | TGI [30] | TGI [31] | TGI [33] | TGI [35] | TGI [36] | TGI [37] | TGI [38] | TGI [39] | TGI [40] | TGI [41] | TGI [42] | TGI [43] | TGI [44] | TGI [45] | TGI [46] | TGI [47] | TGI [48] | TGI [49] | TGI [50] | TGI [51] | TGI [52] | TGI [53] | TGI [54] | TGI [55] | TGI [56] | TGI [57] | TGI [58]
84.8 µM: TGI [25]
47.1 µM: TGI [32]
55.2 µM: TGI [4]
inactive: GI50 [1] > 100 µM | GI50 [2] > 100 µM | GI50 [3] > 100 µM | GI50 [4] 24.4 µM | GI50 [5] > 100 µM | GI50 [6] > 100 µM | GI50 [7] > 100 µM | GI50 [8] 50.4 µM | GI50 [9] > 100 µM | GI50 [10] 51.7 µM | GI50 [11] > 100 µM | GI50 [12] > 100 µM | GI50 [13] > 100 µM | GI50 [14] > 100 µM | GI50 [15] > 100 µM | GI50 [16] > 100 µM | GI50 [17] > 100 µM | GI50 [18] > 100 µM | GI50 [19] > 100 µM | GI50 [20] > 100 µM | GI50 [21] > 100 µM | GI50 [22] > 100 µM | GI50 [23] > 100 µM | GI50 [24] > 100 µM | GI50 [25] 28.5 µM | GI50 [26] > 100 µM | GI50 [27] > 100 µM | GI50 [28] 90 µM | GI50 [29] > 100 µM | GI50 [30] > 100 µM | GI50 [31] > 100 µM | GI50 [32] 16.4 µM | GI50 [33] > 100 µM | GI50 [34] 18.4 µM | GI50 [35] > 100 µM | GI50 [36] > 100 µM | GI50 [37] 37 µM | GI50 [38] > 100 µM | GI50 [39] > 100 µM | GI50 [40] > 100 µM | GI50 [41] > 100 µM | GI50 [42] > 100 µM | GI50 [43] > 100 µM | GI50 [44] > 100 µM | GI50 [45] > 100 µM | GI50 [46] > 100 µM | GI50 [47] > 100 µM | GI50 [48] > 100 µM | GI50 [49] > 100 µM | GI50 [50] > 100 µM | GI50 [51] > 100 µM | GI50 [52] > 100 µM | GI50 [53] > 100 µM | GI50 [54] > 100 µM | GI50 [55] > 100 µM | GI50 [56] > 100 µM | GI50 [57] > 100 µM | GI50 [58] > 100 µM

C[Si](C)(C)OC1CCC(c2cc3ccccc3s2)(N2CCCCC2)CC1 (stereo not given)
25.1 µM: TGI [10]
67.1 µM: TGI [12]
52.1 µM: TGI [32]
> 100 µM: TGI [1] | TGI [2] | TGI [3] | TGI [59] | TGI [5] | TGI [6] | TGI [8] | TGI [9] | TGI [13] | TGI [15] | TGI [16] | TGI [17] | TGI [18] | TGI [19] | TGI [22] | TGI [60] | TGI [23] | TGI [28] | TGI [29] | TGI [30] | TGI [33] | TGI [35] | TGI [37] | TGI [39] | TGI [40] | TGI [41] | TGI [42] | TGI [43] | TGI [44] | TGI [50] | TGI [51] | TGI [52] | TGI [53] | TGI [55] | TGI [56]
61.9 µM: TGI [47]
56.1 µM: TGI [45]
49.9 µM: TGI [25]
50.5 µM: TGI [11]
48 µM: TGI [4]
45.1 µM: TGI [34]
31.2 µM: TGI [49]
40.2 µM: TGI [38] | TGI [48]
71.9 µM: TGI [54]
97.7 µM: TGI [36]
92.3 µM: TGI [14]
76.3 µM: TGI [57]
67.2 µM: TGI [27]
72.8 µM: TGI [58]
29.8 µM: TGI [21]
